IC50 data for 3 compounds are collected here from ChEMBL document CHEMBL1141712, “Kinase array design, back to front: biaryl amides” (Bioorg Med Chem Lett, 2008).

Protein sequences, listed by entry. Tags and fused reporters are not part of them. Lines headed by an entry give the natural chain unless they say otherwise; changes in a name come on top.
UniProt Q15303, whole entry: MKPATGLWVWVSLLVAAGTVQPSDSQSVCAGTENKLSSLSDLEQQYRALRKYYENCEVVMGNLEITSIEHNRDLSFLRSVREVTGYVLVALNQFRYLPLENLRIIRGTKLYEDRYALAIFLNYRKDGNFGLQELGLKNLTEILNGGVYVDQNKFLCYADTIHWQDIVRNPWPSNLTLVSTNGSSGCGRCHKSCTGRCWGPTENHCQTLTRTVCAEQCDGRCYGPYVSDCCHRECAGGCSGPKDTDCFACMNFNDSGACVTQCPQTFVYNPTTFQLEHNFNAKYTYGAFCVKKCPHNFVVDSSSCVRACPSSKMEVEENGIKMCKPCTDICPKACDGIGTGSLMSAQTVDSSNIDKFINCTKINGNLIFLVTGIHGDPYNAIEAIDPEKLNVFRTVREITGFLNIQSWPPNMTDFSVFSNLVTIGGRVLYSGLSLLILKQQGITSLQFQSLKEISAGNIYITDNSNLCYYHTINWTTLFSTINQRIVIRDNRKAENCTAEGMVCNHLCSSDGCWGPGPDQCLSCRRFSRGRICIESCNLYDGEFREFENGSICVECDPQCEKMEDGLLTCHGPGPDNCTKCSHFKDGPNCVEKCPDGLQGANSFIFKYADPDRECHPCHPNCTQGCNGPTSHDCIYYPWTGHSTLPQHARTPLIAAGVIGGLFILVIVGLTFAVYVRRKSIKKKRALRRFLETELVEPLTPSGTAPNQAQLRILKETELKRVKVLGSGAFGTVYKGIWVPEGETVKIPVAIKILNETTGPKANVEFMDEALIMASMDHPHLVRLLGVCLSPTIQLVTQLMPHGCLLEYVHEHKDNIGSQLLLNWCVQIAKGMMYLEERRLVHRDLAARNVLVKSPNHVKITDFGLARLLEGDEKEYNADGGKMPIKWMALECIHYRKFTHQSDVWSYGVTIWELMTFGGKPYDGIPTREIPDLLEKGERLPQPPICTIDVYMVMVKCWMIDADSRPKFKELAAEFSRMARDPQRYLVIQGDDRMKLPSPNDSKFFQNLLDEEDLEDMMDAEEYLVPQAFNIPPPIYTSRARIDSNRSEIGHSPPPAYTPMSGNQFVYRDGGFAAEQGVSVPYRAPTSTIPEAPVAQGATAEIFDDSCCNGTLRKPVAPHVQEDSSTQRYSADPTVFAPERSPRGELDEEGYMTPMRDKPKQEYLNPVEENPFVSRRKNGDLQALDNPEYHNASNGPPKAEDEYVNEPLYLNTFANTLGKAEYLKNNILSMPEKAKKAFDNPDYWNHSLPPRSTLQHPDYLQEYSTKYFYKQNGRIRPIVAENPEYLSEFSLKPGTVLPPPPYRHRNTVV
UniProt P53779: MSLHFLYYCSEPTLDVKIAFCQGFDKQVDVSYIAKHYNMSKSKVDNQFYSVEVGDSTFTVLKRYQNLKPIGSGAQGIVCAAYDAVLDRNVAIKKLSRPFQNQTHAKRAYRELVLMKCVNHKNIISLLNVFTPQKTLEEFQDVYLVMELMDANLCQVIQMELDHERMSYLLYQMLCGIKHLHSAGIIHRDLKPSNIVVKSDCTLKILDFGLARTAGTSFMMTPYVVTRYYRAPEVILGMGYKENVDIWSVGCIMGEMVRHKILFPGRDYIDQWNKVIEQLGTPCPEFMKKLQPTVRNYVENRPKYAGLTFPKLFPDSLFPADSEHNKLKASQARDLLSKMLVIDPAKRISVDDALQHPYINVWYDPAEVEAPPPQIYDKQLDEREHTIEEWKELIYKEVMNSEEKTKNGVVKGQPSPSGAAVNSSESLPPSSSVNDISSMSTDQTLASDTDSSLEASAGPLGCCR

By pIC50 is commonly meant the negative decadic logarithm of the IC50, by convention in mol/L. A low value points to a large IC50.

Molecules are shown by their SMILES. pIC50: −log10 of the molar value.

Assay [1] addresses Receptor tyrosine-protein kinase erbB-4 (Homo sapiens, UniProt Q15303). Put plainly: Inhibition of ErbB4.
The target in assay [2] is Mitogen-activated protein kinase 10 (Homo sapiens, UniProt P53779). Put plainly: Inhibition of JNK3.

On to `Cc1nnc(-c2ccc(-c3cc(C(=O)NC4CC4)ccc3C)c(C)c2)o1`, for which the pIC50 in assay [1] is below 4.60.
Take `Cc1nnc(-c2ccc(-c3cc(C(=O)Nc4cccc(N5CCOCC5)c4)ccc3C)c(C)c2)o1`: the pIC50 in assay [1] was below 4.60.
The compound `Cc1ccc(C(=O)NC2CC2)cc1-c1ccc2c(C3CCNCC3)noc2c1` showed a pIC50 in assay [2] below 4.80.
